# From US5324832A, “Muscarinic antagonists” (priority 1991, dated 1994)
# The chains behind the UniProt entries cited, without tags or fusion partners. Where a name states a change or a piece, a line headed by the entry shows the natural chain unless it says otherwise.
# UniProt P08482: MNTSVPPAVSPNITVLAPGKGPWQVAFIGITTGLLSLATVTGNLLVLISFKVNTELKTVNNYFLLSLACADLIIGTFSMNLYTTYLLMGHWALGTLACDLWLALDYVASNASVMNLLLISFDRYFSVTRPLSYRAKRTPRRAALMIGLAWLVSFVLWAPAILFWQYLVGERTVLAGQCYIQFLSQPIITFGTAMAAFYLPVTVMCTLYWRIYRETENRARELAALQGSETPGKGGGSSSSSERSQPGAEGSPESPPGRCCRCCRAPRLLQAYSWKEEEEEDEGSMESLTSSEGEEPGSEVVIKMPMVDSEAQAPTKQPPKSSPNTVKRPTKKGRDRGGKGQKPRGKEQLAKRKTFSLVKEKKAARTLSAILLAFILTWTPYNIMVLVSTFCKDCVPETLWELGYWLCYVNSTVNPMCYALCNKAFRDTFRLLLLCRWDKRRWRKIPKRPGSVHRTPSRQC
# Target: m1 muscarinic receptors (Rattus norvegicus, UniProt P08482)
# Type: binding
# Description: To assay for irreversible inhibition in rat brain membranes, Scatchard analyses before and after treatment of the membranes with 26 were compared. Even a very […].
# Aliquots of brain membranes were incubated with 1.0 mM of freshly dissolved 26 in phosphate-buffered saline (pH 8.0) for 60 min at room temperature, then centrifuged at 15,000 rpm for 10 min.
# The resulting pellet was resuspended in 25 mL of fresh phosphate-buffered saline (pH 7.2) and centrifuged as above.
smiles,measurement,value
"C[N+]1(C)C2CC(OC(=O)C(CO)c3ccccc3)CC1C1OC12 (stereo not shown) [[^3 H]NMS, [^3 H]N-methylscopolamine, reference compound]",Bmax of [3H]NMS,0.74 pmol/mg protein
